# Experimental properties from OPERA 2.9

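OPERA's authors assembled the values from existing databases and did not measure them anew. The files give a single number for a compound and property, which may rest on several reports. Method and conditions are not stated for these values. A value may pool stereoisomers or salt forms, and the file does not say which form was measured. Some upstream entries may be estimates or bounds without being marked so.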

The melting point is given in degrees Celsius.
Boiling points are in °C, nominally at 760 mmHg.
The octanol-water partition coefficient is given as log10; larger values mean a more lipophilic compound.
Water solubility is log10 of mol/L, nominally at 25 °C; higher is more soluble.
Vapor pressure is log10 of mmHg; the set covers 15 to 30 °C, mostly 20 to 25 °C.
The Henry's law constant is on a log10 scale in atm·m3/mol (set defined at 25 °C); higher favours air over water.
The unbound fraction in human plasma runs from 0 (all bound) to 1 (all free).
Intrinsic clearance (human, µL/min per 10^6 hepatocytes): higher is faster turnover, and 0 stands for none detected.

Listed for CCCC(=O)c1c(C)cc(C)c(C2CC(=O)C(C(CC)=NOCC)=C(O)C2)c1C (stereo not drawn) [Butroxydim]: water solubility -4.759 (log10 mol/L) and log Henry constant -9.243 (log10 atm·m3/mol).
Listed for OCC1CN2CCN1CC2 (stereo not drawn) [1,4-Diazabicyclo[2.2.2]octane-2-methanol]: melting point 44 °C and bp 280 °C and log vapor pressure -2.034 (log10 mmHg).
Listed for O=[N+]([O-])c1ccc(CBr)cc1 [4-Nitrobenzylbromide]: water solubility -3.474 (log10 mol/L) and log vapor pressure -3.01 (log10 mmHg).
Listed for C[C@]12CC[C@H]3[C@@H](CCC4=CC(=O)C=C[C@@]43C)[C@@H]1CC[C@@H]2O [Boldenone]: logP 2.3 and water solubility -3.7 (log10 mol/L) and log vapor pressure -10.11 (log10 mmHg).
Listed for Cc1cccc(C)c1OP(=O)(Oc1cccc(OP(=O)(Oc2c(C)cccc2C)Oc2c(C)cccc2C)c1)Oc1c(C)cccc1C: melting point 94.85 °C and log vapor pressure -5.523 (log10 mmHg).
Listed for CCC(C)(C)OOC(C)(CC)OOC(C)(C)CC [(1-Methylpropylidene)bis(tert-butyl) peroxide]: water solubility -5.796 (log10 mol/L) and log vapor pressure 1.114 (log10 mmHg).
Listed for C=CCC1(CCCC)C(=O)NC(=O)NC1=O [5-Allyl-5-butylbarbituric acid]: logP 2.31 and water solubility -2.171 (log10 mol/L).
Listed for CC(=O)C1CCOC1=O (stereo not drawn) [3-Acetyldihydro-2(3H)-furanone]: melting point -13.8 °C and log vapor pressure -2.487 (log10 mmHg).
Listed for Cc1nn(-c2cc(NS(C)(=O)=O)c(Cl)cc2Cl)c(=O)n1C(F)F [Sulfentrazone]: water solubility -2.699 (log10 mol/L) and Clint 5.71 µL/min/10^6 cells.
Listed for CC(C)OC(=O)[C@H](C)N[P@](=O)(Oc1ccccc1)Oc1c(F)c(F)c(F)c(F)c1F: bp 290 °C and logP 4.1 and water solubility -6.135 (log10 mol/L) and log vapor pressure -6.581 (log10 mmHg).
Listed for CC(Cl)CCl (stereo not drawn) [1,2-dichloropropane]: fraction unbound 0.5441 and Clint 11.33 µL/min/10^6 cells.
Listed for C[C@H]1CC[C@@H]2[C@@H](C)[C@H]3[C@H](C[C@H]4[C@@H]5CC=C6C[C@@H](O[C@@H]7O[C@H](CO)[C@H](O)[C@H](O[C@@H]8O[C@H](CO)[C@@H](O)[C@H](O)[C@H]8O)[C@H]7O[C@@H]7O[C@@H](C)[C@H](O)[C@@H](O)[C@H]7O)CC[C@]6(C)[C@H]5CC[C@]34C)N2C1 [alpha-Solanine]: melting point 286 °C and water solubility -4.541 (log10 mol/L).
Listed for CCOCCN(C(=O)CCl)C(=C(C)C)c1ccccc1 [Pethoxamid]: water solubility -2.87 (log10 mol/L) and log vapor pressure -5.593 (log10 mmHg) and log Henry constant -10.12 (log10 atm·m3/mol).
Listed for Oc1ccc(C(c2ccc(O)cc2)(C(F)(F)F)C(F)(F)F)cc1 [Bisphenol AF]: logP 2.79 and water solubility -3.18 (log10 mol/L) and log vapor pressure -7.255 (log10 mmHg).
Listed for CCCNP(N)(N)=S: melting point 91.2 °C and log vapor pressure -5.862 (log10 mmHg).
Listed for O=C([O-])C(F)(F)OC1(F)OC(F)(F)OC1(F)OC(F)(F)F.[NH4+] (stereo not drawn) [Ammonium perfluoro[(5-methoxy-1,3-dioxolan-4-yl)oxy]acetate]: melting point 64.62 °C and logP -0.38 and log vapor pressure -6.488 (log10 mmHg).
Listed for C=CC(=O)NC(C)(C)CC(C)=O [Diacetone acrylamide]: logP 2.09 and log vapor pressure -3.068 (log10 mmHg).
Listed for C=CC(=O)OCCCCO [4-Hydroxybutyl prop-2-enoate]: bp 236.1 °C and logP 0.77 and log vapor pressure -2.267 (log10 mmHg).
Listed for CNC(=O)Oc1cccc2c1OC(C)(C)O2 [Bendiocarb]: water solubility -2.916 (log10 mol/L) and fraction unbound 0.1975 and Clint 21.66 µL/min/10^6 cells.
Listed for CN1C(=O)CC(=O)N(c2ccccc2)c2cc(Cl)ccc21 [Clobazam]: melting point 167 °C and water solubility -3.263 (log10 mol/L) and Clint 27 µL/min/10^6 cells.
Listed for NCCc1ccc(O)cc1 [Tyramine]: logP 0.72 and water solubility -1.12 (log10 mol/L).
Listed for CC(C)CP(=S)([S-])CC(C)C.[Na+] [Sodium diisobutyldithiophosphinate]: melting point 186 °C and logP -1.64 and log vapor pressure -3.059 (log10 mmHg).

Values as listed in the OPERA 2.9 repository of K. Mansouri.